Reference: patent US9567345B2, “Pharmaceutically active pyrazolo-triazine derivatives” (LEAD DISCOVERY CENTER GMBH, priority 2012, dated 2017)

Amino acid sequences for entries named in this document (tags omitted).
UniProt P50750, whole entry: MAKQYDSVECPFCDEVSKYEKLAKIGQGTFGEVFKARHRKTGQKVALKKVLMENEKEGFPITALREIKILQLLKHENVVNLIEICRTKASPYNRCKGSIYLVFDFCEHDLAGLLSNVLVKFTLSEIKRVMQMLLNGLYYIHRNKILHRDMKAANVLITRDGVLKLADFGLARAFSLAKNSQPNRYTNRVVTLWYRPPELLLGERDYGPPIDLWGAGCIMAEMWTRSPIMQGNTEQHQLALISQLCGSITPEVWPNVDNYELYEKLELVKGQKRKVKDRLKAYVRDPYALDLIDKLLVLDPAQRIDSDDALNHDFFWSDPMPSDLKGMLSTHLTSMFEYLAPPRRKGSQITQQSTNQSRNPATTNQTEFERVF

Biological target: CDK9/Cyclin T1 (Homo sapiens, UniProt P50750)
Assay: CDK9 Enzymatic Activity Assay (Lance Kinase Activity Assay, FRET)
Assay type: biochemical
Conditions: selectivity CDK9 vs CDK7, enzymatic IC50 values
Protocol: This protocol describes how the Lance Kinase Activity Assay was performed to determine IC50 values of compounds of general formula (I) against CDK/Cyclin complexes. The principle behind this enzymatic assay is based upon the phosphorylation of the Ulight-Peptide Substrat. It is detected by using a specific EU-labeled anti-phospho peptide antibody.
Binding of an inhibitor to the kinase prevents phosphorylation of the Ulight-MBP Substrat, resulting in a loss of FRET.
CDK9 Enzymatic Activity Assay
The compounds of general formula (I) exemplary summarized in Table 1 were diluted from a 10 mM DMSO stock solution 1:10 in a total volume of 15 μl DMSO. This compound predilution was then serial diluted 1:3 over 8 steps in DMSO and briefly spun down. […]
For positive controls, 2 μl of DMSO working solution were mixed with 6 μl CDK9/cyclin T1/substrate working solution and 2 μl ATP working solution. Positive and negative controls were calculated from at least 8 different wells. […] Plates were mixed in a Teleshaker plate mixer (Beckman Coulter, Brea, Calif., USA) at 2000 rpm for 40 sec, followed by incubation with Detection Buffer for 1 h, and reading. […] IC50 values were determined from the sigmoidal dose response curves with the software Quattro Workflow (Quattro GmbH, Munich, Germany).

multiplicity of the CDK9 activity in terms of the CDK7 activity: even lower than the CDK 7 activity
SMILES: CC(C)(C)c1cnc(CSc2cnc(NC(=O)C3CCNCC3)s2)o1 [SNS-032, reference compound]
